{"sequences": {"note": "Chains of the proteins cited; added tags and fusions are not shown. Lines headed by an entry give the natural chain unless they say otherwise; changes in a name come on top.", "UniProt P37231": "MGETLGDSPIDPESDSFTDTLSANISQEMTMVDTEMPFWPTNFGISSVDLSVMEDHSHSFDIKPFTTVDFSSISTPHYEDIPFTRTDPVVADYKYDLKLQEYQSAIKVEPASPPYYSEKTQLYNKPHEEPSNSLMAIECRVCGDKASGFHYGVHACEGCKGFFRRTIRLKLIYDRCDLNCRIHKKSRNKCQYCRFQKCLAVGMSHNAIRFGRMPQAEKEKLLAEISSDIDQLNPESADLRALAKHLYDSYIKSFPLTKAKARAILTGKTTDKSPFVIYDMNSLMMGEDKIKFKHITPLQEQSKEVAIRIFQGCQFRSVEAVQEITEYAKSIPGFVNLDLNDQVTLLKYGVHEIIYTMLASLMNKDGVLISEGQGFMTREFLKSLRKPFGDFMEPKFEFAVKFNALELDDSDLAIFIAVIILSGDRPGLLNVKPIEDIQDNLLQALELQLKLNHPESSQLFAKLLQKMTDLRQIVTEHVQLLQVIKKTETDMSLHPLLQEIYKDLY"}, "source": "ChEMBL document CHEMBL5608219", "about": "“Structure-based screening, optimization and biological evaluation of novel chrysin-based derivatives as selective PPARγ modulators for the treatment of T2DM and hepatic steatosis” (Eur J Med Chem, 2024)", "key": {"[1]": {"assay": "Toxicity in db/db mouse assessed as body weight gain at 10 to 40 mg/kg, ip administered for 21 days", "type": "organism-based", "details": "in vivo, 504 h, dose 10-40 mg/kg, time 21 day"}, "[2]": {"system": "3T3-L1", "assay": "Induction of adipocytes differentiation in insulin/IBMX stimulated mouse 3T3-L1 assessed as lipid accumulation at 10 uM incubated for 2 days followed by insulin addition for another 6 days by Oil Red O staining based microscopic assay (reference value: 15.09%)", "type": "functional", "details": "time 8 day"}, "[3]": {"assay": "Toxicity in db/db mouse assessed as reduction in body weight at 20 to 40 mg/kg, ip administered for 21 days", "type": "organism-based", "details": "in vivo, 504 h, dose 20-40 mg/kg, time 21 day"}, "[4]": {"biological_target": "Peroxisome proliferator-activated receptor gamma (Homo sapiens) (UniProt P37231)", "assay": "Binding affinity to GST tagged PPARgamma LBD (unknown origin) at 100 uM preincubated in shaker for 30 sec followed by incubation for additional 4 hrs at room temperature by LanthaScreen TR-FRET competitive binding assay", "details": "filed as agonist, time 14430.0 sec"}, "[5]": {"biological_target": "Peroxisome proliferator-activated receptor gamma (Homo sapiens) (UniProt P37231)", "assay": "Agonist activity at human PPARgamma transfected in COS7 cells at 1 to 10 uM incubated for 24 hrs by luciferase based microplate reader assay", "type": "cell-based", "details": "filed as agonist, dose 1-10 µM"}, "[6]": {"system": "Mus musculus", "assay": "Anti-NAFL activity in db/db mouse assessed as reduction in vacuole size at 20 mg/kg, ip administered for 21 days by H and E staining based assay", "type": "functional, organism-based", "details": "time 21.0 day"}, "[7]": {"system": "Mus musculus", "assay": "Anti-NAFL activity in db/db mouse assessed as reduction in amount of lipid droplets at 20 mg/kg, ip administered for 21 days by Oil Red O staining based assay", "type": "functional, organism-based", "details": "time 21.0 day"}, "[8]": {"system": "Mus musculus", "assay": "Anti-NAFL activity in db/db mouse assessed as reduction in serum TC content at 20 mg/kg, ip administered for 21 days", "type": "functional, organism-based", "details": "time 21.0 day"}, "[9]": {"system": "Mus musculus", "assay": "Anti-NAFL activity in db/db mouse assessed as reduction in serum TG content at 20 mg/kg, ip administered for 21 days", "type": "functional, organism-based", "details": "time 21.0 day"}, "[10]": {"system": "Mus musculus", "assay": "Anti-NAFL activity in db/db mouse assessed as reduction in hepatic TC content at 20 mg/kg, ip administered for 21 days", "type": "functional, organism-based", "details": "time 21.0 day"}, "[11]": {"system": "Mus musculus", "assay": "Anti-NAFL activity in db/db mouse assessed as decrease in liver injury by measuring reduced serum ALT level at 20 mg/kg, ip administered for 21 days", "type": "functional, organism-based", "details": "time 21.0 day"}, "[12]": {"system": "Mus musculus", "assay": "Anti-NAFL activity in db/db mouse assessed as decrease in liver injury by measuring reduced serum AST level at 20 mg/kg, ip administered for 21 days", "type": "functional, organism-based", "details": "time 21.0 day"}, "[13]": {"system": "Mus musculus", "assay": "Anti-NAFL activity in db/db mouse assessed as reduction in serum LDLC content at 20 mg/kg, ip administered for 21 days", "type": "functional, organism-based", "details": "time 21.0 day"}, "[14]": {"system": "Mus musculus", "assay": "Anti-NAFL activity in db/db mouse assessed as reduction in hepatic TG content at 20 mg/kg, ip administered for 21 days", "type": "functional, organism-based", "details": "time 21.0 day"}}, "note": "Active and inactive are the calls of the source. The calls are words filed in the database; no cut-off is given here.", "data": [{"molecule": "O=C(COc1cc(O)c2c(=O)cc(-c3ccccc3)oc2c1)NCc1ccc(C(F)(F)F)cc1", "values": [{"measurement": "Activity", "setting": "[1]", "value": "Non-Toxic"}, {"measurement": "Activity", "setting": "[2]", "value": 12.11, "unit": "%"}, {"measurement": "Activity", "setting": "[3]", "value": "Toxic"}]}, {"molecule": "O=c1cc(-c2ccccc2)oc2cc(O)cc(O)c12", "note": "[CHRYSIN]", "values": [{"measurement": "Activity", "setting": "[4]", "value": "Active"}, {"measurement": "Activity", "setting": "[5]", "value": "Active"}]}, {"molecule": "Clc1ccc(C(Cn2ccnc2)OCc2ccc(Sc3ccccc3)cc2)c(Cl)c1.O=[N+]([O-])O", "note": "(centres undefined) [FENTICONAZOLE NITRATE]", "values": [{"measurement": "Activity", "setting": "[6]", "value": "Active"}, {"measurement": "Activity", "setting": "[7]", "value": "Active"}, {"measurement": "Activity", "setting": "[8]", "value": "Active"}, {"measurement": "Activity", "setting": "[9]", "value": "Active"}, {"measurement": "Activity", "setting": "[10]", "value": "Active"}, {"measurement": "Activity", "setting": "[11]", "value": "Active"}, {"measurement": "Activity", "setting": "[12]", "value": "Active"}, {"measurement": "Activity", "setting": "[13]", "value": "Active"}, {"measurement": "Activity", "setting": "[14]", "value": "Active"}]}]}
